For the experiment, the target named is Cannabinoid receptor 1 (Rattus norvegicus, UniProt P20272). The experiment in a line: Displacement of [3H]HU243 from CB1 receptor in Sabra rat brain. A digest of the protocol: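 Synaptosomal membranes (3-4 µg) from male rat brain (250-300 g) were incubated with [3H]HU-243 for 90 min at 30 °C with test compound or vehicle (fatty-acid-free BSA 0.5 mg/mL final). Bound and free ligand were separated by centrifugation. Nonspecific binding was defined with 50 nM unlabeled HU-243. Ki was obtained by Cheng-Prusoff. Triplicates, three independent experiments.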

Amino acid sequences for entries named in this document (tags omitted).
UniProt P20272, whole entry: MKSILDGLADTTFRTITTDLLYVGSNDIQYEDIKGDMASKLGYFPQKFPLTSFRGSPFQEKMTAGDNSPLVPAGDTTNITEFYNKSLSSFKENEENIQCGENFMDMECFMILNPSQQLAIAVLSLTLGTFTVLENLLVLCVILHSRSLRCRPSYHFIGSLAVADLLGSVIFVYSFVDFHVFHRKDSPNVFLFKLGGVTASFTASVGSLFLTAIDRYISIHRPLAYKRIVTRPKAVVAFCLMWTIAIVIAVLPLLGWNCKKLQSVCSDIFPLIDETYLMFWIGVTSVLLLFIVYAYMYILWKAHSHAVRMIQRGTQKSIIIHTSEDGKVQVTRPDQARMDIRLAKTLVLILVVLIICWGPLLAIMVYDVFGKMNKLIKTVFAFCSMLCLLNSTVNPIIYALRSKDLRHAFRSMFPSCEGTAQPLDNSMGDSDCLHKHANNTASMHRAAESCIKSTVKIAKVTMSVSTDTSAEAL

Drawing on ChEMBL document CHEMBL1149434, “New cannabidiol derivatives: synthesis, binding to cannabinoid receptor, and evaluation of their antiinflammatory activity” (J Med Chem, 2006), this text covers Ki for one compound.

What is called Ki is the dissociation constant of the complex between target and ligand, obtained from inhibition or displacement.

The compound `C=C(C)[C@@H]1CCC(C)=C[C@H]1c1c(O)cc(CCCCC)cc1O` [CANNABIDIOL] displayed a Ki greater than 10 µM.
